Rows were chosen to be rich in hits. Some 16% of all compounds tested hit in one or more screens of this group.
DT40 TDP1 no CPT = qHTS for Inhibitors of human tyrosyl-DNA phosphodiesterase 1 (TDP1): qHTS in cells in absence of CPT; Potency, µM (top dose mostly 46.2 µM), for inactives: at the highest dose activity change, negative = growth inhibition, most hits filed as inhibitors; 420,000 tested, 15% active; DT40 Tdp1-/- hTDP1 cells, no CPT, ATP luminescence, 48 h; AID 686978, 2013; further: potency means the concentration at half of the fitted maximal effect; on the % scale 0 is the no-effect control and ±100 the full control effect; nearly all actives have a fitted effect of over 55% in size
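A cellular qHTS used chicken DT40 cells lacking endogenous Tdp1 but carrying stably transfected human TDP1. Compounds were applied without camptothecin, and cell growth kinetics were judged by ATP-dependent luminescence after ≥48 hr.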
TDP1 inh = blocks human tyrosyl-DNA phosphodiesterase 1. 350,000 tested, 0.28% active. AID 485290. Potency, µM (titrated, usually from 130 µM), for inactives: at the top dose activity change, negative = inhibition, hits mostly inhibitors. recombinant TDP1, AlphaScreen DNA substrate cleavage; further: potency means the concentration at half of the fitted maximal effect; on the % scale 0 is the no-effect control and ±100 the full control effect; nearly all actives have a fitted effect of over 40% in size
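E. coli-derived human Tdp1, 1 nM final. Cpd preinc 15 min RT; substrate 15 nM final, 5 min RT; AS bead mix 10 ug/ml final, 10 min RT. Signal loss = tyrosine-FITC cleavage. No-enzyme wells = max signal.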
uPA surface inh = inhibitors of cell surface uPA generation. cell surface uPA generation assay, qHTS. Potency, µM (titrated, usually from 38.3 µM), inactives show at the top dose activity change, negative = inhibition, hits mostly inhibitors. 330,000 tested, 0.31% active. AID 540303; active means well fitted inhibition curve with a large enough effect; inconclusive means small, poorly fitted or top-dose-only effect; inactive means no such curve, though single readings can be large or run the other way; tested in mouse RAW 264.7 cells; further: potency means the concentration at half of the fitted maximal effect; on the % scale 0 is the no-effect control and ±100 the full control effect; nearly all actives have a fitted effect of over 55% in size
TDP1 cell CPT = growth inhibition of DT40 Tdp1-/-;hTDP1 cells with camptothecin (screen for TDP1 inhibitors); chicken DT40 Tdp1-/-;hTDP1 cells + 20 nM CPT, ATP luminescence, 48 h; Potency, µM (top dose mostly 46.2 µM), for inactives: at the highest dose activity change, negative = growth inhibition, most hits filed as inhibitors; 420,000 tested, 12% active; AID 686979; further: potency means the concentration at half of the fitted maximal effect; on the % scale 0 is the no-effect control and ±100 the full control effect; nearly all actives have a fitted effect of over 55% in size
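Chicken DT40 Tdp1-/- cells stably complemented with human TDP1 were seeded at 400 cells/well in medium containing 20 nM camptothecin, exposed to pin-transferred compounds, and grown at 37 °C for at least 48 hr. Viability was read as ATP luminescence.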
miR-21 FLuc = miR-21 reporter, rising signal | AID 2288 | HeLa miR-21 FLuc reporter, luciferase, 48 h | 340,000 tested, under 10 active | Potency, µM (titrated, usually from 38.3 µM), for the others: at the top dose reporter change, positive = more light; active = well fitted rising curve with a large enough effect; inconclusive = small, poorly fitted or top-dose-only effect; inactive = no such curve, though single readings can be large or run the other way;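 also: % of control where 0% means no effect; miR-21 action dims this reporter so a rising signal means less miR-21 action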
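Using DMEM plus 10% FBS, HeLa miR-21-FLuc cells are incubated with test compounds (final up to about 40uM) for 48 hours; firefly luciferase signal is then imaged following reagent-mediated lysis.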
* hit, by the source's call; ? = inconclusive; . = not tested or not shown; [ ] = remark or other dose. Unless noted, the call rests on the fitted dose curve; in most records, active means well fitted curve in the direction sought with a large enough effect; inconclusive means small, poorly fitted or top-dose-only effect, or another doubt; inactive means no such curve, though single readings can be large; an effect the other way counts as inactive or inconclusive.

Screens by letter – A = DT40 TDP1 no CPT; B = TDP1 inh; C = uPA surface inh; D = TDP1 cell CPT; E = miR-21 FLuc
SMILES: CCOC(=O)c1c(C)oc2c1c(C(c1cccnc1)N1CCN(C)CC1)c(O)c1ccccc12 (configuration not stated)
  A: .	B: 9%	C: .	D: .	E: -58%

SMILES: CCOC(=O)c1c(C)oc2c1c(C=NCC1CCCO1)c(O)c1ccccc12 (configuration not stated)
  A: 18µM*	B: -1%	C: 4%	D: ?	E: -1%

SMILES: CCOC(=O)c1c(C)oc2c1c(C(c1cccnc1)N1CCOCC1)c(O)c1ccccc12 (configuration not stated)
  A: 18µM*	B: 11%	C: -1%	D: ?	E: -59%

SMILES: CCOC(=O)Cn1cnc(-c2ccc([N+](=O)[O-])cc2)c1
  A: 1%	B: 2%	C: 1%	D: 6%	E: -40%

SMILES: Cc1csc(=O)n1CCC(=O)N(C)Cc1c(F)cccc1Cl
  A: 16µM*	B: 3%	C: -4%	D: ?	E: .

SMILES: Cc1cccc(NC(=O)CSCC(=O)N(C)Cc2c(F)cccc2Cl)c1
  A: 13µM*	B: 0%	C: 1%	D: ?	E: .

SMILES: Cc1cc(NC(=O)CSCC(=O)N(C)Cc2c(F)cccc2Cl)no1
  A: -4%	B: 6%	C: 6%	D: 1%	E: .

SMILES: CC(=O)NC(CC(=O)N(C)Cc1c(F)cccc1Cl)c1ccccc1 (configuration not stated)
  A: -16%	B: -2%	C: -3%	D: 7%	E: -1%

SMILES: O=C(NCCCO)C(=O)NCC(c1ccc2c(c1)OCO2)N1CCOCC1 (configuration not stated)
  A: -1%	B: -1%	C: .	D: -6%	E: -4%

SMILES: Cc1ccc(Cn2c(C(CO)Nc3nc(-c4ccc(Cl)c([N+](=O)[O-])c4)cs3)nc3ccccc32)cc1 (configuration not stated)
  A: ?	B: .	C: -26%	D: ?	E: .

SMILES: OCCCn1c(C(CO)Nc2nc(-c3ccc(Cl)cc3)cs2)nc2ccccc21 (configuration not stated)
  A: 16µM*	B: .	C: 2%	D: ?	E: .

SMILES: COc1ccc(-c2csc(NC(CO)c3nc4ccccc4n3Cc3ccc(C)cc3)n2)cc1 (configuration not stated)
  A: ?	B: .	C: -21%	D: 26µM*	E: .

SMILES: Cc1cccc(N2CCN(C3=NC(=O)C(Cc4ccccc4)S3)CC2)c1 (configuration not stated)
  A: 15µM*	B: 0%	C: 2%	D: ?	E: 1%

SMILES: CCOC(=O)c1cc2c(=O)n3cccc(C)c3nc2n(C)c1=N
  A: .	B: 0%	C: .	D: .	E: 2%

SMILES: Cc1cccc(C)c1NC(=O)c1ccc(OCc2c(C)noc2C)cc1
  A: 16µM*	B: 1%	C: ?	D: ?	E: .

SMILES: Cc1noc(C)c1COc1ccc(C(=O)N2CCN(c3ccccc3O)CC2)cc1
  A: 16µM*	B: 1%	C: -1%	D: ?	E: .

SMILES: Cc1noc(C)c1COc1ccc(C(=O)N2CCN(S(=O)(=O)c3ccccc3)CC2)cc1
  A: ?	B: 3%	C: 1%	D: ?	E: .

SMILES: Cc1noc(C)c1C(=O)N1CCN(c2ccc(OCc3ccccc3)cc2)CC1
  A: 16µM*	B: .	C: 2%	D: 15µM*	E: 0%

SMILES: Cc1noc(C)c1COc1ccc(C(=O)NNC(=O)c2ccccc2F)cc1
  A: 1.5µM*	B: 0%	C: 2.8µM*	D: 2.3µM*	E: .

SMILES: CCOC(=O)C1=C(c2ccc(OC)cc2)OC(N)=C(C#N)C1c1cccnc1 (configuration not stated)
  A: ?	B: -4%	C: 1%	D: 4%	E: -2%

SMILES: CC(=O)c1cccc(NC(=O)N2CCCC2C(=O)Nc2cc(C)ccc2C)c1 (configuration not stated)
  A: 2%	B: -2%	C: -2%	D: 2%	E: -4%

SMILES: Cc1noc(C)c1COc1ccc(C(=O)O)cc1
  A: -11%	B: 6%	C: -2%	D: -10%	E: 4%

SMILES: Cc1noc(C)c1COc1ccc(C(=O)NNC(=O)c2ccccc2)cc1
  A: 4.6µM*	B: .	C: -13%	D: 5.2µM*	E: .

SMILES: CC(C)(C)c1ccc(C(=O)Nc2cccc([N+](=O)[O-])c2)cc1
  A: 18µM*	B: 5%	C: -10%	D: 16µM*	E: 21%

SMILES: O=C(Nc1cccc([N+](=O)[O-])c1)C1C2CC/C=C\CCC21 (configuration not stated)
  A: 18µM*	B: 0%	C: 0%	D: -28%	E: -12%

SMILES: CC(C)(C)CC(C)(C)NC(=O)Nc1cccc([N+](=O)[O-])c1
  A: 16µM*	B: -5%	C: 10µM*	D: ?	E: ?

SMILES: CCOC(=O)C1(CC2CC2)CCN(C(=O)c2ocnc2C)CC1
  A: -23%	B: 0%	C: ?	D: -17%	E: -42%

SMILES: Cc1cn2c(N)c(C=C3C=C(Cl)C(=O)C(Cl)=C3)c(=O)nc2s1
  A: ?	B: -3%	C: 5%	D: ?	E: -2%

SMILES: Cc1[nH]nc(C(=O)NN=Cc2ccccc2Cl)c1N=NN(C)C
  A: 6.5µM*	B: .	C: -11%	D: 9.2µM*	E: .

SMILES: O=C(N/N=C/c1ccccc1Cl)c1n[nH]c2c1CCCC2
  A: ?	B: 6%	C: ?	D: -26%	E: -59%

Given bar-delimited: part of the list above
mol | DT40 TDP1 no CPT | TDP1 inh | uPA surface inh | TDP1 cell CPT | miR-21 FLuc
Cc1noc(C)c1COc1ccc(C(=O)N2CCN(S(=O)(=O)c3ccccc3)CC2)cc1 | ? | 3% | 1% | ? | .
Cc1noc(C)c1C(=O)N1CCN(c2ccc(OCc3ccccc3)cc2)CC1 | 16µM* | . | 2% | 15µM* | 0%
Cc1noc(C)c1COc1ccc(C(=O)NNC(=O)c2ccccc2F)cc1 | 1.5µM* | 0% | 2.8µM* | 2.3µM* | .
CCOC(=O)C1=C(c2ccc(OC)cc2)OC(N)=C(C#N)C1c1cccnc1 (configuration not stated) | ? | -4% | 1% | 4% | -2%

(continued)
Screens by letter – A = DT40 TDP1 no CPT; B = TDP1 inh; C = uPA surface inh; D = TDP1 cell CPT; E = miR-21 FLuc
SMILES: Cc1cccc(OCCCCc2c(C)n[nH]c2C)c1C
  A: ?	B: 9%	C: .	D: 12µM*	E: 12%

SMILES: O=Cc1ccccc1OCCCOc1cccc2cccnc12
  A: 2.1µM*	B: 5%	C: ?	D: 4.6µM*	E: -5%

SMILES: Clc1ccccc1OCCCOc1cccc2cccnc12
  A: ?	B: .	C: 6%	D: 15µM*	E: -44%

SMILES: O=C(/C=C/c1ccccc1)Oc1cccc2cccnc12
  A: 8.2µM*	B: 3%	C: -4%	D: ?	E: -1%

SMILES: COc1ccccc1OCCCCCc1c(C)n[nH]c1C
  A: ?	B: 2%	C: .	D: ?	E: 1%

SMILES: O=C(OCC#CCSc1nnc(-c2cccc3ccccc23)o1)c1ccc(F)cc1F
  A: .	B: -7%	C: .	D: .	E: .

SMILES: CCC(=O)Oc1ccc(C(=O)Nc2cccc(C(=O)NCC(C)C)c2)cc1
  A: -21%	B: -1%	C: -4%	D: -3%	E: -3%

SMILES: CCN(C(=O)Cn1c(SCc2ccccc2F)nc2cccnc21)c1ccccc1
  A: ?	B: 2%	C: .	D: ?	E: -23%

SMILES: CCOC(=O)N/N=C1/C[C@@H](O)[C@@H](O)[C@@H]2[C@@H]3C(=O)N(Cc4ccc5c(c4)OCO5)C(=O)[C@H]3CC[C@H]12
  A: .	B: 4%[21 µM]	C: .	D: .	E: .

SMILES: C[C@H](CO)N1C[C@H](C)[C@@H](CN(C)S(=O)(=O)c2cn(C)cn2)Oc2ncc(Br)cc2C1=O
  A: ?	B: .	C: .	D: 15%	E: .

SMILES: Cc1ccc(OCCCOc2cccc3cccnc23)cc1C
  A: ?	B: 6%	C: 6%	D: ?	E: -48%

SMILES: Cc1cccc(OCCCOc2cccc3cccnc23)c1C
  A: 18µM*	B: -6%	C: 12%	D: ?	E: -26%

SMILES: O=c1c2ccccc2c(C=Nc2cccc(S(=O)(=O)NCc3ccco3)c2)c(O)n1-c1ccc(Cl)cn1
  A: ?	B: 8%	C: 1%	D: ?	E: -1%

SMILES: Cc1ccc(Cl)cc1-n1nnc(-c2nc(-c3ccc4c(c3)OCO4)no2)c1C
  A: 21µM*	B: 3%	C: .	D: ?	E: -35%

SMILES: COc1ccc(Cl)cc1-n1nnc(-c2nc(-c3ccc4c(c3)OCO4)no2)c1C
  A: -8%	B: 0%	C: .	D: 1%	E: -6%

SMILES: Cc1c(Cl)cccc1-n1nnc(-c2nc(-c3ccc4c(c3)OCO4)no2)c1C
  A: ?	B: 3%	C: .	D: 23µM*	E: -30%

SMILES: Cc1ccc(C)c(-n2nnc(-c3nc(-c4ccccc4C)no3)c2C)c1
  A: 15µM*	B: 3%	C: .	D: 16µM*	E: -55%

Screening results as filed in PubChem.
